From US20200353088A1, “PEPTIDE CONJUGATE CGRP RECEPTOR ANTAGONISTS AND METHODS OF PREPARATION AND USES THEREOF” (Auckland UniServices Limited, priority 2017, published 2020)

Amino acid sequences for entries named in this document (tags omitted). Residues count along the entry.
UniProt O60894, 27-148: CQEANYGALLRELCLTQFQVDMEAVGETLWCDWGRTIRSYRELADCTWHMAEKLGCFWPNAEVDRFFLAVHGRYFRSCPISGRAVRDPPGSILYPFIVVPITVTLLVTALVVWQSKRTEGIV
UniProt Q16602, 23-461: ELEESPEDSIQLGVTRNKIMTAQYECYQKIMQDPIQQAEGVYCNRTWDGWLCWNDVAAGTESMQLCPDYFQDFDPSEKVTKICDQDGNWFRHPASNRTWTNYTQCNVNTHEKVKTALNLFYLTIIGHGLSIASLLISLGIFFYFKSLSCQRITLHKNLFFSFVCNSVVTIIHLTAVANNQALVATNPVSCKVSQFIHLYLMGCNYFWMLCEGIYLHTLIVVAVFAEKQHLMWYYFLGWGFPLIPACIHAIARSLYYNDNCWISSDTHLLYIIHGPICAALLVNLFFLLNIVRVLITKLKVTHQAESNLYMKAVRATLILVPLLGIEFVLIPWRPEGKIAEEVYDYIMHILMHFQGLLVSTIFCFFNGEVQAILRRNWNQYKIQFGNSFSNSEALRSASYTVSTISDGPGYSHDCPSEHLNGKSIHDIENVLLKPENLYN

Tests used:
[1] = target: T1, CGRP (CLR/RAMP1) receptor (Homo sapiens, UniProt O60894+Q16602); experiment: Antagonism of CGRP-induced cAMP accumulation in Cos 7 cells transfected with CLR/RAMP1; format: cell-based; settings: for A2 (antilog of the negative pA2), CGRP (CLR/RAMP1): transfected Cos-7 cells, cAMP
T1 construct: expressed in transfected cells; host or cells: Cos 7 (African green monkey kidney), transient transfection with polyethylenimine
Protocol: 1. Antagonism of CGRP-Induced cAMP Accumulation in Transfected CGRP Receptor Expressing Cells
Simian vacuolating virus 40 (SV40) transformed African green monkey kidney (Cos 7) cells were transiently transfected with calcitonin receptor-like receptor (CLR) or calcitonin receptor (CTR) together with receptor activity-modifying protein 1 (RAMP1) to form CGRP or AMY1(a) receptors.
On the day of experimentation, media was replaced with 50 μl DMEM containing 1 mM isobutylmethylxanthine and 0.1% bovine serum albumin for 30 min. All peptides were diluted in assay medium and after the 30 min incubation, 25 μl antagonists were added, followed immediately by 25 μl human alpha CGRP (hαCGRP), giving a total assay volume of 100 μl. Once human alpha CGRP was added, the cells were incubated at 37° C. for 15 minutes. The media was then aspirated from the wells and reactions terminated with ice-cold absolute ethanol. Ethanol was evaporated to dryness and cAMP was quantified using a commercially-available assay (LANCE Perkin Elmer).
3. Calculation of Antagonist Potency Values
Data were analysed using Graphpad Prism 7. Antagonist pKB or pA2 values were obtained using Global Schild analysis. […] Where a single concentration of antagonist was used, pA2 values are used to describe antagonist potency.

[2] = target: T1, CGRP (CLR/RAMP1) receptor; experiment: cAMP assay with antagonist pre-incubation, with or without wash step, CLR/RAMP1 transfected Cos 7 cells; format: cell-based
Protocol: Cos 7 cells were cultured in Dulbecco's Modified Eagle Medium (DMEM) supplemented with 8% heat inactivated fetal bovine serum and kept in a 37° C. humidified 95% air/5% CO2 incubator. […] In a different specific experimental paradigm, media was replaced with DMEM containing 1 mM isobutylmethylxanthine and 0.1% bovine serum albumin for 30 min. After this period, 25 μl of antagonist or media was added for 15 minutes at 37° C. as a pre-incubation period. After pre-incubation, the antagonist or media were aspirated from some wells, washed once with phosphate-buffered saline and replaced with 75 μl new media. The other wells with antagonist were not washed. […] Once human alpha CGRP was added, the cells were incubated at 37° C. for 15 minutes. The media was then aspirated from the wells and reactions terminated with ice-cold absolute ethanol. […] Calculation of Antagonist Potency Values Data were analysed using Graphpad Prism 7. Antagonist pKB or pA2 values were obtained using Global Schild analysis. […] Where a single concentration of antagonist was used, pA2 values are used to describe antagonist potency.

[3] = target: human CGRP receptor (CLR/RAMP1), transiently transfected in Cos 7 cells (human, UniProt Q16602 23-461; O60894 27-148); experiment: cell-based or functional assay

- A2 (antilog of the negative pA2), CGRP (CLR/RAMP1) [1]: (A2: 0.21 nM)
Molecule: V8C(S-Pam)O-CGRP8-37 [C3]

- Selectivity (fold-difference CGRP vs. AMY1) ([1]; CGRP (CLR/RAMP1) vs. AMY1 (CTR/RAMP1), Cos-7 cells): 12 fold
- A2 (antilog of the negative pA2), CGRP (CLR/RAMP1) [1]: (A2: 87 nM)
- A2, CGRP (CLR/RAMP1), Without wash ([2]; 15 min antagonist pre-incubation, not washed): (A2: 229 nM)
- A2, CGRP (CLR/RAMP1), With wash ([2]; 15 min antagonist pre-incubation, washed once with PBS): >3000 nM
- Fold change reduction in pA2 with wash, CGRP (CLR/RAMP1) ([2]; calculated from Table 2, with wash vs. without wash): >13 fold
Molecule: K35C(S-Pam) CGRP8-37 [A6]

- A2 (antilog of the negative pA2), CGRP (CLR/RAMP1) [1]: (A2: >100 nM)
Molecule: R11C(S-Pam), K24C(S-Pam) α-CGRP8-37 [A11]

- A2 (antilog of the negative pA2), CGRP (CLR/RAMP1) [1]: (A2: 18 nM)
Molecule: R11C(S-Pam) α-CGRP8-37 [A9]

- A2 (antilog of the negative pA2; cAMP assay, Cos 7) [3]: 87 nM
- antagonist potency pA2 (cAMP assay, Cos 7) [3]: 7.06
B1: K35C(S-Pam) CGRP8-37 A6 (peptide)
peptide: VTHRLAGLLSRSGGVVKNNFVPTNVGSCAF
modifications: Cys 35 (CGRP numbering; residue 28 of the entry) S-conjugated to 2-(palmitoyloxy)ethyl (S-Pam); C-terminal amide

One block for each molecule: values may come before it.
